Laboratory results from patent US20260092061A1, “COMPOUNDS FOR TARGETED PROTEIN DEGRADATION” (Amphista Therapeutics Limited, priority 2022, published 2026).

Protein sequences, listed by entry. Tags and fused reporters are not part of them.
UniProt Q9H8M2, whole entry: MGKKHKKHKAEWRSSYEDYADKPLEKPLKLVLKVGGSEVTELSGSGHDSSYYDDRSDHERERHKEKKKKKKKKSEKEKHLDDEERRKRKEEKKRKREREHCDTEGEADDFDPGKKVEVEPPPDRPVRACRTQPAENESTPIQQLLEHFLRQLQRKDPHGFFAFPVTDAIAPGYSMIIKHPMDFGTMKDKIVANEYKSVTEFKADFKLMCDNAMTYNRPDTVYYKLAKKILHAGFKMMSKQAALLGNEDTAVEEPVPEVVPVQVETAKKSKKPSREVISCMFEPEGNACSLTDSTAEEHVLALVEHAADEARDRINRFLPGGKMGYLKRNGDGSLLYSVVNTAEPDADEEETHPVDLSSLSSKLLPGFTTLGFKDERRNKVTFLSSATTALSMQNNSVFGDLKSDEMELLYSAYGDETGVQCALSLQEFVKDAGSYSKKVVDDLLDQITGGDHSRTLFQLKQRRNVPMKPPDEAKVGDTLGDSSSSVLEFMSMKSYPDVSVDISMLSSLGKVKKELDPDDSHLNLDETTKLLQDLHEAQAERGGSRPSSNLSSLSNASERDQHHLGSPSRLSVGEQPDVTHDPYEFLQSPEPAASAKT

Columns and labels:
BRD9 [1] = biological target: T1, BRD9 (Homo sapiens, UniProt Q9H8M2); assay: Degradation of BRD9 (IF), immunofluorescence in MV4-11 cells, 24 hours (Assay Protocol 2)
Protocol: Assay Protocol 2—Degradation of BRD9 (IF)
A suspension of MV4-11 cells (ATCC CRL-9591) was prepared in phenol red-free assay media (IMDM Thermo Scientific 21056023+10% FBS ATCC 302025) and cells were seeded at 20,000 cells per well (45 μL) in sterile black poly-d-lysine coated 384 well plates (Greiner 781948). Compounds were prepared at 1000× final concentration in DMSO, diluted 1:100 in assay media, and 5 μL compound was added to each well of the cell plate. Cells were incubated for 24 hours at 37° C. with 5% CO2. All the following incubations for immunofluorescence staining were at room temperature. 15 μL of 16% PFA was added to each well (3.7% final concentration) and the cells were fixed for 15 min then washed twice with DPBS. Cells were permeabilised with 0.1% Triton X-100 for 10 min, Triton X-100 was removed, then blocked with 1% BSA in DPBS for 1 hour. Cells were stained with 25 μL anti-BRD9 E4Q3F antibody (CST 48306) diluted 1:25600 in 1% BSA in DPBS for 2-3 hours. Wels were washed twice with DPBS then incubated with 25 μL of 1% BSA containing a 1:1000 dilution of Anti-rabbit Alexa Fluor™ 647 secondary antibody (Thero Scientific A21244) and 1 μg/mL Hoechst nuclear counter stain (Abcam ab228551) for 1 hour. Wells were washed twice with DPBS prior to imaging on a Perkin Elmer Operetta CLS with 10× air lens. Images were processed using Harmony High-Content Imaging and Analysis Software (Perkin Elmer) and the mean contrast ratio of Alexa Fluor™ 647 in central nuclei was used to quantify BRD9 protein levels. Data was further analysed using Dotmatics software and % BRD9 remaining was calculated by normalisation to average data from high and low control wells (cells treated with DMSO or 100 nM CFT-8634 respectively).

BRD9 [2] = biological target: T1, BRD9; assay: BRD9 degradation, HiBiT-BRD9 KI HEK293 (LgBiT) cells, NanoGlo Lytic Endpoint assay (Assay Protocol 1)
Protocol: HiBiT-BRD9 KI HEK293 (LgBiT) Cells (Promega CS3023412) were seeded at 8000 cells per well (38 μL) in sterile white bottom 384 well plates (Invitrogen 164610 or Greiner 781080) and incubated overnight at 37° C. with 5% CO2. The next day, compounds were prepared at 1000× final concentration in DMSO and diluted 1:100 in media (DMEM PAN Biotech P04-03550+10% FBS ATCC 302025). 4 μL compound was added to each well of the cell plate and incubated for 6 h at 37° C. with 5% CO2 BRD9 expression was quantified using the NanoGlo Lytic Endpoint assay (Promega N3050). The lytic buffer was equilibrated to room temperature for 10-15 min before lytic reagent was prepared by adding substrate (1:50) and LgBit protein (1:100) in lytic buffer. 40 μL lytic reagent mix was added to each well of the cel plate and plates were centrifuged briefly at ˜50g. Plates were incubated with shaking (350 RPM) for 12-24 min before reading using the LUM plus module of a BMG Pherastar FSX. Data was analysed using Dotmatics software and % BRD9 remaining was calculated by normalisation to average data from high and low control wells (DMSO treated cels and no cells respectively).

| Structure (SMILES) | DC50 (BRD9 [1]) | Dmax (BRD9 [1]) | DC50 (BRD9 [2]) | Dmax (BRD9 [2]) |
| --- | --- | --- | --- | --- |
| COc1cc(-c2cn(C)c(=O)c(C)c2C)cc(OC)c1CN1CCCN(Cc2cccc3c2CCN(C(=O)C(C#N)=CC(C)(C)CF)C3C(C)C)CC1 (single isomer, unassigned) | 25 to 1000 nM | + (+ = >40% and <70%) |  |  |
| COc1cc(-c2cn(C)c(=O)c(C)c2C)cc(OC)c1CN1CC2CC(C1)N2Cc1cccc(C2CCCN2C(=O)C(C#N)=CC(C)(C)C)c1 (stereo not drawn) | < 1.25 nM | +++ (+++ = ≥75%) | 1.25 to 10 nM | +++ (+++ = ≥75%) |
